# Laboratory results from paper PMC3439374, “Co-Crystalization and In Vitro Biological Characterization of 5-Aryl-4-(5-Substituted-2-4-Dihydroxyphenyl)-1,2,3-Thiadiazole Hsp90 Inhibitors” (PLoS ONE, 2012).
# The chains behind the UniProt entries cited, without tags or fusion partners. Residues count along the entry.
# UniProt P08238, 2-724: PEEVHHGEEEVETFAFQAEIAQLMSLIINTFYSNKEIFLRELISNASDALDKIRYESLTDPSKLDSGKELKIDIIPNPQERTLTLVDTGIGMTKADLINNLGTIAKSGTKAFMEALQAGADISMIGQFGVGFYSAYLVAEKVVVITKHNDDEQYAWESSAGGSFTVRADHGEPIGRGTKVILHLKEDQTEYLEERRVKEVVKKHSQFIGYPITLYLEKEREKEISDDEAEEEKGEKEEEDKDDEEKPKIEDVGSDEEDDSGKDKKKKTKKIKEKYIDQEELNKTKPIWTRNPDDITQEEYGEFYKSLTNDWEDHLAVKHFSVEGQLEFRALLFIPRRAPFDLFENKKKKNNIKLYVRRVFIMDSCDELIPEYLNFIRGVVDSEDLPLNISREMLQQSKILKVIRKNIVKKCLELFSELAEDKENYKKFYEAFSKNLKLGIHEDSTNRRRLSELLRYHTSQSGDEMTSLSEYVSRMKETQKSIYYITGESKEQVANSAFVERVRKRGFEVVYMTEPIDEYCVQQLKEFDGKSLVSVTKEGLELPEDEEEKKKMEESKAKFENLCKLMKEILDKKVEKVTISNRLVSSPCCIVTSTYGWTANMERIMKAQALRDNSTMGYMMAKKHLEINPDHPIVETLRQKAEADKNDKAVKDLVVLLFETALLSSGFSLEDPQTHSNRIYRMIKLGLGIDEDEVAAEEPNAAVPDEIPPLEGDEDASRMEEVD
# Target: T1, Hsp90β (Homo sapiens, UniProt P08238)
# T1 construct: gene HSP90AB1
# Assay: biochemical
row,IC50,SMILES
1,0.0266 ± 0.0044 µM,COc1ccc(-c2snnc2-c2cc(Cl)c(O)cc2O)cc1 [ICPD 26]
2,0.0519 ± 0.0064 µM,COc1ccc(-c2snnc2-c2cc(Cl)c(O)cc2O)cc1OC [ICPD 34]
3,0.0146 ± 0.0016 µM,CCOc1ccc(-c2snnc2-c2cc(Cl)c(O)cc2O)cc1 [ICPD 47]
